Values quoted from earlier work, collected in patent US20190151329A1, “THERAPEUTIC USE OF DIAMINOPHENOTHIAZINES” (WisTa Laboratories Ltd., priority 2007, published 2019).

How the values were obtained:
[1] = human; 10 mg oral; urinary excretion data; cited from earlier work
[2] = rat; 2 minutes following administration; cited from earlier work

## CN(C)c1ccc2nc3ccc(=[N+](C)C)cc-3sc2c1 [MTC, methylthioninium chloride]
[1]
  VcF (Vc × F), Free (Ox-MTC): 29.7918 L
[2]
  intravenous dose recovered in heart, lung, liver and kidney: 29.8%
